Earlier results on one molecule are cited in patent US20160130659A1.

The structures appear in SMILES notation.

This data set has as its target recombinant human GST-Syk (Homo sapiens, UniProt P43405). As to conditions: read-out: rhSyk (nM), rhSyk activity (IC50); HTRF, recombinant human SYK fusion protein; representative compounds of WO 2012/154519.

For orientation: IC50 means the concentration that inhibits the measured activity by half. Take `Cc1cc(Nc2nccc(C)n2)cc(-c2cnc(C[C@]3(O)CC[C@H](C(=O)O)CC3)s2)c1`: the IC50 is 318 nM.
